Antibody variant affinities, Ab-14 heavy chain, assay 1

Antigen: PDVDLGDISGINAS, a 14-residue peptide of the SARS-CoV-2 spike HR2 region.

The variants keep the light chain, the linker and the frameworks of Ab-14 (scFv order VH, a 15-residue (Gly4Ser)3 linker, VL).
VH: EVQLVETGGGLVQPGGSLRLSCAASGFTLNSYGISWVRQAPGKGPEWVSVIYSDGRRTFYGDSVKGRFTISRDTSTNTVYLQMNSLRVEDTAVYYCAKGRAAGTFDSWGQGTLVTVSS
VL: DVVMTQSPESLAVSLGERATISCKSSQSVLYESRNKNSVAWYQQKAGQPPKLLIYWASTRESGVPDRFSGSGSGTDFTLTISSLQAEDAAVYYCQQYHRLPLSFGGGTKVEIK

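AAYL49 was designed without a model: most single CDR substitutions and a random sample of double and triple ones. The scFvs were displayed on barcoded MATa yeast, the peptide on MATalpha yeast. Binding brings cells together so that they mate, and sequencing counts the barcode pairs among the diploids. Each replicate has its own calibration line, from reference interactions of the BCL2 family. There are three technical replicates.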

Each variant is given by its three heavy chain CDRs, as the data file delimits them; those of the parent are GFTLNSYGIS, VIYSDGRRTFYGDSVK, GRAAGTFDS.
The read-out is the apparent dissociation constant on a log10 scale (nM): the lower, the stronger.
A pair that was not seen in that replicate is written "n.d."; this usually means weak binding, but a binder can also be missed.

| # | CDR-H1 | CDR-H2 | CDR-H3 | replicates, log10 nM | control signals |
|---|---|---|---|---|---|
| 1 | GFTLNSYGPS | VIYSGGRRTFYGDSVK | GRAAGLFDS | n.d. / n.d. / n.d. | 0/9 |
| 2 | GFTLNHYGIS | VIYSDGRRTGYFDSVK | GRAAGTFDS | 3.29 / n.d. / n.d. | 1/9 (2.55) |
| 3 | GFTLNSYGIS | VIYSTGRRCFYGDSVK | GRAAGTFDS | n.d. / n.d. / n.d. | 0/9 |
| 4 | GFTLNSYGIS | VIRSDGRRTFYGDSVK | GRATGTCDS | n.d. / 3.19 / 3.58 | 3/9 (4.06) |
| 5 | RFTLNSYGII | VIYSDGRRTFYGDSVK | GRASGTFDS | n.d. / n.d. / n.d. | 1/9 (3.07) |
| 6 | GFTLNTYGIK | VAYSDGRRTFYGDSVK | GRAAGTFDS | n.d. / 4.18 / 6.00 | 1/9 (3.66) |
| 7 | GFTLNSYGIS | VIYQYGRRTFYGDSVK | GRADGTFDS | 4.50 / n.d. / n.d. | 2/9 (3.75) |
| 8 | GFTLNSYGIS | VIYSDGRRTFYGDRVK | GRAAWGFDS | n.d. / n.d. / n.d. | 1/9 (2.82) |
| 9 | GFTLNSYGIS | VIVSDGRRTFYLDSVK | GRAAGTRDS | 3.91 / n.d. / n.d. | 2/9 (3.56) |
| 10 | GFTLNSYGIS | VIYSDGKRKFYGDMVK | GRAAGTFDS | 2.81 / 1.93 / 2.28 | 0/9 |
| 11 | GFTLNSYGIS | VIYSDGRSTAYGDSVK | GIAAGTFDS | 1.91 / 1.66 / 2.19 | 6/9 (4.01) |
| 12 | GFTLNSYGIS | VIYNDGHRTFYGDSVK | GRAACTFDS | n.d. / n.d. / n.d. | 5/9 (4.12) |
| 13 | GFTLNSYGIS | VIYSDGDFTFYGDSVK | RRAAGTFDS | n.d. / n.d. / n.d. | 0/9 |
| 14 | GYTLNSYGIS | VWYSDGRRTFYGDSVK | LRAAGTFDS | n.d. / n.d. / n.d. | 0/9 |
| 15 | GFTLNSYGSS | VIYSTGRRTFYGDSLK | GRAAGTFDS | n.d. / n.d. / n.d. | 0/9 |
| 16 | GFTLNSYGIS | VIYSDGRRTFYGDHVK | GRAAGTFDE | 1.90 / 1.94 / 2.20 | 1/9 (3.47) |
| 17 | EFTLNSYGIS | VIYTDGRRTFYGDSVK | GRAAGTFES | n.d. / n.d. / n.d. | 1/9 (2.30) |
| 18 | GFTLNSYGIS | VIYSNGRRTFYGNSTK | GRAAGTFDS | n.d. / 4.81 / n.d. | 6/9 (4.69) |
| 19 | GFTLNSYGIS | QIYSDGRRDFYGDSVK | GRADGTFDS | 4.82 / 3.81 / 4.86 | 4/9 (3.92) |
| 20 | GFTLNSYGIS | VIYSDGRRGFFGPSVK | GRAAGTFDS | n.d. / n.d. / n.d. | 0/9 |
| 21 | GFTLNSYGIS | SIYSNGRRTFYGDSVK | GRAAGTFDD | n.d. / 5.27 / n.d. | 4/9 (4.56) |
| 22 | GFTLNKYGIS | VIYSDGERTFYGDSVK | GRAAGTVDS | 1.99 / 1.95 / 2.07 | 2/9 (3.54) |
| 23 | GFTLNSYPIS | VIYSDPRRTFYGDSVK | GRAAGAFDS | n.d. / 4.02 / n.d. | 6/9 (4.31) |
| 24 | GFTLNSYGIS | VIYSDGRRTFYGNSVK | GLAAGQFDS | n.d. / n.d. / n.d. | 0/9 |
| 25 | GFTLNSYGIS | VIYSHGRRTFYNTSVK | GRAAGTFDS | 3.04 / n.d. / n.d. | 0/9 |
| 26 | GFTLNSYGRS | VCYSDGRRTFYGDSVK | GRAAGQFDS | 4.54 / 3.82 / n.d. | 4/9 (3.90) |
| 27 | GVTLNSYGIS | VIYSDVSRTFYGDSVK | GRAAGTFDS | 4.59 / 3.68 / 5.13 | 4/9 (4.64) |
| 28 | GFFLNSYGIS | VIYSDGRRTFSGDSVK | GRAAGTTDS | n.d. / n.d. / 3.12 | 1/9 (2.65) |
| 29 | GFTLNSYGIS | EIYSDGKRIFYGDSVK | GRAAGTFDS | n.d. / 4.68 / 4.34 | 2/9 (3.52) |
| 30 | GFTLNSYGIS | VITSDGRRTFVGDMVK | GRAAGTFDS | n.d. / n.d. / n.d. | 2/9 (3.04) |
| 31 | GFTLNSYGIS | VIYSDGRRTFYGDRVI | KRAAGTFDS | 3.45 / 3.60 / n.d. | 0/9 |
| 32 | GFTSNSYGIS | VIYSFGRRTFYIDSVK | GRAAGTFDS | n.d. / n.d. / n.d. | 3/9 (3.65) |
| 33 | GFTLNIYGIS | VQYSDGRRTFYGDSVK | GRAAGTFDS | n.d. / n.d. / n.d. | 0/9 |
| 34 | GFTLNSYGIS | VIYSDGRRTSYGDSVK | WRAAGKFDS | 1.29 / 1.20 / 1.20 | 7/9 (4.74) |
| 35 | NFTLLSYGFS | VIYSDGRRTFYGDSVK | GRAAGTFDS | n.d. / 4.27 / 5.20 | 0/9 |
| 36 | GFTLNSYNII | VIYSDGRRTFYGDSVK | GRAAGRFDS | n.d. / n.d. / n.d. | 2/9 (4.06) |
| 37 | GFTLNSYGIS | VIYSDGRRTFYGDSRK | ARFAGTFDS | n.d. / n.d. / n.d. | 0/9 |
| 38 | GFTLNSYGIV | PIYSDGRRTFYGDSVK | GRMAGTFDS | n.d. / 3.92 / 3.97 | 2/9 (3.53) |
| 39 | GFTLNSYGIS | VVYSDGRRTFYGDSVK | GRAAGTPIS | 4.22 / 3.22 / 3.18 | 1/9 (3.50) |
| 40 | GFTLNSYGIS | VIYSDGRRTLYGDVVK | GRAAGTFWS | 5.61 / n.d. / n.d. | 2/9 (3.30) |
| 41 | GFTLNSYGIS | VEYSDGRRTFYGDSVK | GRAAGTFRL | n.d. / n.d. / n.d. | 2/9 (3.43) |
| 42 | KFTLNSYGIS | VIYSDGRRTFYGDSVK | GRAAGTTDS | n.d. / n.d. / n.d. | 0/9 |
| 43 | GFTSSSYGIS | VSYSDGRRTFYGDSVK | GRAAGTFDS | n.d. / n.d. / n.d. | 1/9 (4.37) |
| 44 | GFTLNSYGIS | VIYSDWRRTFYGDSVK | GIAAGTFDS | n.d. / n.d. / n.d. | 0/9 |
| 45 | GFTLNSYGIS | VFYSDGRRTFYSDSVK | GRAAGTFDS | n.d. / 2.44 / 2.95 | 0/9 |

A selection of 3 entries from above:

| CDR-H1 | CDR-H2 | CDR-H3 | replicates, log10 nM | control signals |
|---|---|---|---|---|
| RFTLNSYGII | VIYSDGRRTFYGDSVK | GRASGTFDS | n.d. / n.d. / n.d. | 1/9 (3.07) |
| GFTLNSYGIS | EIYSDGKRIFYGDSVK | GRAAGTFDS | n.d. / 4.68 / 4.34 | 2/9 (3.52) |
| GFTLNSYGIS | VIYSHGRRTFYNTSVK | GRAAGTFDS | 3.04 / n.d. / n.d. | 0/9 |

Three control strains display no target. For library AAYL49, 15% of the pairings with them gave a signal, with a median of 4.06 and one signal in twenty below 2.83, so weak values seen in few replicates may be background. The control count says in how many pairings with the empty strains this scFv gave a signal, with their mean in brackets.
In this assay the parent's reference entry averaged 0.65; its copy inside this library read 4.11 (one replicate of three).

The measurements come from Engelhart et al. 2022 (doi:10.1038/s41597-022-01779-4) through the FLAb antibody collection.